Data: PubChem BioAssay AID2445 (The Scripps Research Institute Molecular Screening Center, 2010)
Only a part is listed here, and it is no random draw. Some structures show a salt or complex split into parts, the way the source records it. The source made the active and inactive calls.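 How the source made its calls: active means activation above that plate's cutoff, the mean activation of tested compounds plus 3 SD (cut at about 6.6% in these data, passing the limit was not always enough); inactive means the rest.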

The chains behind the UniProt entries cited, without tags or fusion partners.
UniProt P30559, whole entry: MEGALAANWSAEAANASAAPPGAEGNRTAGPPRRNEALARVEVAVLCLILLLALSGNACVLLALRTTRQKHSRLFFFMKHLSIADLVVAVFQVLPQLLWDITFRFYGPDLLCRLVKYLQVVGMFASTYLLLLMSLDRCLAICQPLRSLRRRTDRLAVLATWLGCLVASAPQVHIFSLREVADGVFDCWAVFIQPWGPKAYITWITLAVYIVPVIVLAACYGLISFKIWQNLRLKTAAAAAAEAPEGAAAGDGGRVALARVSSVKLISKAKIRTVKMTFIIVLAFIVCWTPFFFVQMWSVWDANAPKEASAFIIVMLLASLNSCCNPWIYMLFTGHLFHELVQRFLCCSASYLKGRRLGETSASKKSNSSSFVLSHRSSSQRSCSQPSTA

target: Oxytocin receptor (Homo sapiens) (UniProt P30559); test: enhancers of oxytocin-evoked OXTR calcium signal – fluorescence, CHO-OTR cells, Fluo-8 calcium, primary screen (AID 2445); details: Fluo-8 calcium fluorescence, potentiator mode, at 3 µM, stronger effect = higher value, 0% = oxytocin EC15, 100% = EC100;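 further: 100% uses oxytocin at 75 nM as the full agonist control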

SMILES | activation
CCOC(=O)C(CC)C1=NC(C)(C)Cc2ccccc21.O=[N+]([O-])c1cc([N+](=O)[O-])c(O)c([N+](=O)[O-])c1 (stereo not drawn) | inactive: -1.98%
CC1=C2N=C(C=C3N=C(C(C)=C4[N-][C@@](C)([C@@H]5N=C1[C@](C)(CCC(=O)NC[C@@H](C)OP(=O)([O-])O[C@H]1[C@@H](O)[C@@H](n6cnc7cc(C)c(C)cc76)O[C@@H]1CO)[C@H]5CC(N)=O)[C@@](C)(CC(N)=O)[C@@H]4CCC(N)=O)[C@@](C)(CC(N)=O)[C@@H]3CCC(N)=O)C(C)(C)[C@@H]2CCC(N)=O.[C-]#N.[Co+3] | inactive: -4.71%
O=[N+]([O-])c1cc([N+](=O)[O-])c(Nc2nnnn2CCO)c([N+](=O)[O-])c1 | inactive: -0.72%
CN1CCCCC1COC(=O)C1(O)c2ccccc2CCc2ccccc21 (stereo not drawn) | inactive: 0.76%
COc1ccccc1OP(C)(=O)Nc1c(C)cccc1C (stereo not drawn) | inactive: -3.41%
CCCOc1ccc(NP(C)(=O)Oc2ccc(Cl)cc2)cc1 (stereo not drawn) | inactive: -2.98%
CP(=O)(Nc1ccc(SC(F)(F)F)cc1)Oc1ccccc1 (stereo not drawn) | inactive: -8.42%
O=[N+]([O-])c1cc([N+](=O)[O-])c(-n2nnc3ccccc32)c([N+](=O)[O-])c1 | inactive: 4.2%
O=[N+]([O-])c1cc([N+](=O)[O-])c(-c2cnn(-c3ccccc3)c2)c([N+](=O)[O-])c1 | inactive: -5.34%
Cc1nc2ccc3ccccc3c2s1.O=[N+]([O-])c1cc([N+](=O)[O-])c(O)c([N+](=O)[O-])c1 | inactive: -9.86%
COc1ccccc1OP(C)(=O)Nc1cccc(Br)c1 (stereo not drawn) | inactive: -1.8%
CCOC(=O)c1ccc(NP(C)(=O)Oc2cc(C)cc(C)c2)cc1 (stereo not drawn) | inactive: -6.86%
Cc1cc(C)cc(OP(C)(=O)Nc2ccc(C)cc2C)c1 (stereo not drawn) | inactive: -2.65%
Cc1ccc(C)c(NP(C)(=O)Oc2ccccc2)c1 (stereo not drawn) | inactive: -6.02%
Cc1cc(C)cc(OP(C)(=O)Nc2ccccn2)c1 (stereo not drawn) | inactive: -1.35%
CP(=O)(Nc1cccc(Br)c1)Oc1ccccc1 (stereo not drawn) | inactive: 0.18%
O=C(O)c1cccc(Nc2c([N+](=O)[O-])cc([N+](=O)[O-])cc2[N+](=O)[O-])c1 | inactive: -19.8%
CC1=NCCc2c1[nH]c1ccccc21.O=[N+]([O-])c1cc([N+](=O)[O-])c(O)c([N+](=O)[O-])c1 | inactive: -1.84%
O=[N+]([O-])c1cc([N+](=O)[O-])c(Nc2cccnc2)c([N+](=O)[O-])c1 | inactive: -13.2%
O=[N+]([O-])c1ccc2c(c1)C=Nc1ccccc1O2 | inactive: -3.09%
Cc1cccc(C)c1OP(C)(N)=O (stereo not drawn) | inactive: -18.4%
CC(C)(C)c1ccc(OP(C)(=O)Nc2ccc(SC(F)(F)F)cc2)cc1 (stereo not drawn) | inactive: -7.32%

SMILES | activation
Cc1ccc(NP(C)(=O)Oc2ccccc2)c(C)c1 (stereo not drawn) | inactive: -16.7%
COc1ccccc1OP(C)(=O)Nc1ccc(C)cc1 (stereo not drawn) | inactive: -12%
CCOC(=O)c1ccc(NP(C)(=O)Oc2ccccc2)cc1 (stereo not drawn) | inactive: -5.32%
Cc1cc(C)cc(OP(C)(N)=O)c1 (stereo not drawn) | inactive: -0.15%
COc1ccc(OP(C)(=O)Nc2cccc(F)c2)cc1 (stereo not drawn) | inactive: -14.3%
COc1ccccc1OP(C)(=O)Nc1cc(Cl)ccc1C (stereo not drawn) | inactive: -14.7%
CCN(CC)CCCOC(=O)C(O)(c1ccccc1)c1ccccc1 | inactive: -4.42%
CP(=O)(Oc1ccccc1)OC(c1ccccc1)C(F)(F)F (stereo not drawn) | inactive: -1.7%
CP(=O)(Nc1ccc(SC(F)(F)F)cc1)Oc1ccc(Cl)cc1 (stereo not drawn) | inactive: -2.22%
Cc1cccc(C)c1OP(C)(=O)Nc1ccc(SC(F)(F)F)cc1 (stereo not drawn) | inactive: -9.14%
Cc1cc(C)cc(OP(C)(=O)Nc2ccc(SC(F)(F)F)cc2)c1 (stereo not drawn) | inactive: -11.7%
CP(=O)(NC(=O)Nc1ccccc1)Oc1ccccc1 (stereo not drawn) | inactive: 3.47%
CCc1ccc(OP(C)(=O)N2CCN(c3ccc([N+](=O)[O-])cc3)CC2)cc1 (stereo not drawn) | inactive: -12.7%
O=[N+]([O-])c1cc([N+](=O)[O-])c(O)c([N+](=O)[O-])c1.c1ccc(Oc2ccncc2)cc1 | inactive: 0.16%
CCOC(=O)c1ccc(NP(C)(=O)Oc2ccc(OC)cc2)cc1 (stereo not drawn) | inactive: -1.02%
CCOP(C)(=S)SCC(=O)NC(C)C(=O)O (stereo not drawn) | inactive: -4.74%
CP(=O)(Nc1ccccn1)Oc1ccc(Cl)cc1 (stereo not drawn) | inactive: -3.81%
CP(=S)(Nn1cnnc1)Oc1ccccc1 (stereo not drawn) | inactive: -0.71%
CP(=O)(Nc1ccccc1Br)Oc1ccccc1 (stereo not drawn) | inactive: 4.36%
COc1ccccc1OP(C)(=O)Nc1ccccc1 (stereo not drawn) | inactive: -4.27%
Nc1ccc2c(ccc3cccnc32)n1.O=[N+]([O-])c1cc([N+](=O)[O-])c(O)c([N+](=O)[O-])c1 | inactive: -8.05%
CCOC(=O)c1ccc(NP(C)(=O)Oc2ccc(Cl)cc2)cc1 (stereo not drawn) | inactive: -1.9%

SMILES | activation
CP(=O)(OC12CC3CC(CC(C3)C1)C2)OC12CC3CC(CC(C3)C1)C2 | inactive: -3.98%
COc1ccc(OP(C)(=O)Nc2ccc(Br)cc2)cc1 (stereo not drawn) | inactive: -3.62%
CCN(CC)CC(O)COC(=O)C(O)(c1ccccc1)C1CCCCC1 (stereo not drawn) | inactive: -2.39%
O=C(OCCCN1CCCC1)C(O)(c1ccccc1)C1CCCCC1 (stereo not drawn) | inactive: -5.57%
COc1ccccc1OP(C)(=O)Nc1c(C)n(C)n(-c2ccccc2)c1=O (stereo not drawn) | inactive: -6.86%
CCc1ccc(OP(C)(=O)Nc2cccnc2)cc1 (stereo not drawn) | inactive: 0.9%
CP(=O)(Oc1ccccc1)N1CCOC1=O (stereo not drawn) | inactive: -6.95%
COc1ccccc1OP(C)(=O)Nc1ccccc1Br (stereo not drawn) | inactive: 2.7%
CC(C)(C)c1ccc(OP(C)(=O)O)cc1 | inactive: 0.11%
CP(=O)(Nc1ccc(Cl)cc1)Oc1ccc(F)cc1 (stereo not drawn) | inactive: 1.25%
CN(C)C(=O)c1c([N+](=O)[O-])cc([N+](=O)[O-])cc1[N+](=O)[O-] | inactive: 1.65%
COc1ccccc1OP(C)(=O)Nc1ccc(Br)cc1 (stereo not drawn) | inactive: -2.44%
COc1ccc(OP(C)(=O)Nc2ccccn2)cc1 (stereo not drawn) | inactive: 1.92%
CN(C)CCOC(=O)C(O)(c1ccccc1)C1CCCC1 (stereo not drawn) | inactive: -0.74%
Cc1c(NP(C)(=O)Oc2ccc(C(C)C)cc2)c(=O)n(-c2ccccc2)n1C (stereo not drawn) | inactive: -3.13%
O=[N+]([O-])c1cc([N+](=O)[O-])c(Nc2ccccn2)c([N+](=O)[O-])c1 | inactive: -10.8%
COc1ccccc1OP(C)(=O)Nc1ccc(C)cc1C (stereo not drawn) | inactive: -9.24%
CP(=O)(Nc1ccccn1)Oc1ccccc1 (stereo not drawn) | inactive: -4.48%
CCc1ccc(OP(C)(=O)O)cc1 | inactive: 2.27%
Cc1cc(C)cc(OP(C)(=O)Nc2cccc(C(F)(F)F)c2)c1 (stereo not drawn) | inactive: -3.01%
COc1ccccc1OP(C)(=O)Nc1ccc(C)c(C)c1 (stereo not drawn) | inactive: -8.77%
COc1ccc(OP(C)(=O)Nc2ccccc2Br)cc1 (stereo not drawn) | inactive: 4.2%

SMILES | activation
Cc1nc2ccc3ccccc3c2o1.O=[N+]([O-])c1cc([N+](=O)[O-])c(O)c([N+](=O)[O-])c1 | inactive: 2.01%
CP(=O)(Nc1ccc(Cl)cc1Cl)Oc1ccccc1 (stereo not drawn) | inactive: -20.9%
CP(=O)(OCCOc1ccccc1)OCCOc1ccccc1 | inactive: -7.29%
CCOC(=O)c1ccc(NP(C)(=O)Oc2ccc(F)cc2)cc1 (stereo not drawn) | inactive: -1.26%
COc1ccc(OP(C)(=O)Nc2ccc(SC(F)(F)F)cc2)cc1 (stereo not drawn) | inactive: -5.36%
CCN(CC)CCCOC(=O)C(O)(c1ccccc1)C1CCCCC1 (stereo not drawn) | inactive: -16.4%
CP(=O)(Nc1ccccc1)Oc1ccc(F)cc1 (stereo not drawn) | inactive: -10.2%
CCCCCOc1ccc(NP(C)(=O)Oc2ccc(Cl)cc2Cl)cc1 (stereo not drawn) | inactive: -7.04%
O=[N+]([O-])c1cc([N+](=O)[O-])c(OC2CCCCC2O)c([N+](=O)[O-])c1 (stereo not drawn) | inactive: 3.51%
CP(=O)(Nc1ccccc1F)Oc1ccccc1 (stereo not drawn) | inactive: 2.26%
CC(C)c1ccc(OP(C)(=O)Nc2ccc(SC(F)(F)F)cc2)cc1 (stereo not drawn) | inactive: -3.98%
O=C(OC1CN2CCC1CC2)c1ccc([N+](=O)[O-])cc1 (stereo not drawn) | inactive: -8.66%
O=C(OCCN1CCN(CCOCc2ccccc2)CC1)C(O)(c1ccccc1)c1ccccc1 | inactive: -7.25%
COc1ccc2c(c1O)-c1c(O)c(OC)cc3c1[C@H](C2)[N+](C)(C)CC3.O=[N+]([O-])c1cc([N+](=O)[O-])c([O-])c([N+](=O)[O-])c1[O-] | inactive: -4.15%
CP(=O)(Nc1ccc(SC(F)(F)F)cc1)Oc1ccc(F)cc1 (stereo not drawn) | inactive: -5.77%
CCOP(C)(=S)SCC(=O)NC(C)(CC)C(=O)O (stereo not drawn) | inactive: -6.6%
CP(=O)(Nc1ccc2c(c1)OCCO2)Oc1ccccc1 (stereo not drawn) | inactive: -1.12%
Cc1ccccc1NP(C)(=O)Nc1ccccc1C | inactive: -11.1%
COc1ccc(OP(C)(=O)Nc2cccc(Br)c2)cc1 (stereo not drawn) | inactive: -12.1%
CN(C)CCOC(=O)C(O)(c1ccccc1)C1CCCCC1 (stereo not drawn) | inactive: 0.22%
COc1ccc(NP(C)(=O)Oc2ccccc2OC)cc1 (stereo not drawn) | inactive: 2.55%
O=[N+]([O-])c1cc([N+](=O)[O-])c(NCC2CCS(=O)(=O)C2)c([N+](=O)[O-])c1 (stereo not drawn) | inactive: -5.41%
